Assay results from PubChem BioAssay (NCATS).
The list shows a part of the results, in another mix than the full data. Records with an inconclusive call do not appear. Calls of active or inactive are those of the source. Unless noted, the call rests on the fitted dose curve; in most records, active means well fitted curve in the direction sought with a large enough effect; inconclusive means small, poorly fitted or top-dose-only effect, or another doubt; inactive means no such curve, though single readings can be large; an effect the other way counts as inactive or inconclusive.

Chains of the proteins cited; added tags and fusions are not shown. Residues count along the entry.
UniProt P08482, whole entry: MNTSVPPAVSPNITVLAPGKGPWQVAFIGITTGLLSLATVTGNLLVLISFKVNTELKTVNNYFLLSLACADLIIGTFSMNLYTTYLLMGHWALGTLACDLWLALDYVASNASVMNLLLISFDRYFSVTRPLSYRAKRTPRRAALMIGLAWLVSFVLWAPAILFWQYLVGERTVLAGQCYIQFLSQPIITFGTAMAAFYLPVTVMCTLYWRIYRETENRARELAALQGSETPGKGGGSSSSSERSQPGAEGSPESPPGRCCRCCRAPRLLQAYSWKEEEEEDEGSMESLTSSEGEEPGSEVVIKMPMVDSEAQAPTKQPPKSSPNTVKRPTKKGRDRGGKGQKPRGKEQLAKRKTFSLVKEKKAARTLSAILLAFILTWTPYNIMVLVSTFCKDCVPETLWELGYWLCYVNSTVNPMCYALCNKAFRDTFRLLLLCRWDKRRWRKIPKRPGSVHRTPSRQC
UniProt P14618, 1-531 isoform 2: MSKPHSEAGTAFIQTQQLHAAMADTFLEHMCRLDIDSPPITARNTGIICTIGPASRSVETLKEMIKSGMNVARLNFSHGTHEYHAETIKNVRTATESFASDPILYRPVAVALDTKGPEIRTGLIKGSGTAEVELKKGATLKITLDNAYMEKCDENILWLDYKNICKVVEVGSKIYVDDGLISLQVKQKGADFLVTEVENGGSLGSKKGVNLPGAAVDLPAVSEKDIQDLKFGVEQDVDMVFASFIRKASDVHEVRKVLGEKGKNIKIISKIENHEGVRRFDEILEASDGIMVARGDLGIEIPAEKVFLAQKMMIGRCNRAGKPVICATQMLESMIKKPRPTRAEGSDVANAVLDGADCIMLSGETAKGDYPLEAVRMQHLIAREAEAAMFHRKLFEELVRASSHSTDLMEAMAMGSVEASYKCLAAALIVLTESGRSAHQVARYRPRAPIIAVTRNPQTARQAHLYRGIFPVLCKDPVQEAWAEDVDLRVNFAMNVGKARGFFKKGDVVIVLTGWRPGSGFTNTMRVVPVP

Tests used:
[1] = MultiTox-Fluor Cytotoxicity Assay - LYMP1-001 - Dead Cells (AID 946); details: LYMP1-001 lymphoblastoid cells, dead-cell protease fluorescence; at 92.2 µM (top of the series);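 further: 0% = DMSO and 100% = tetraoctylammonium bromide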
Summary of the method: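 LYMP1-001 lymphoblastoid cells (2500/well) treated 16 h at 37 C. Dead-cell protease cleavage of bis-AAF-R110 read at Ex/Em 485/520. Normalized to DMSO and 15 uM tetraoctylammonium bromide; AC50 from Hill fits.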

[2] = MultiTox-Fluor Cytotoxicity Assay - LYMP1-001 - Live Cells (AID 947); details: LYMP1-001 lymphoblastoid cells, live-cell protease fluorescence viability; at 92.2 µM (top of the series);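 further: 0% = DMSO only and full inhibition = tetraoctylammonium bromide control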
[3] = Cell Viability - LYMP1-002 - Assay at 16 hr (AID 948); details: LYMP1-002 lymphoblastoid cell viability; at 92.2 µM (top of the series);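 further: 0% = DMSO alone and full effect = 92 µM tetraoctylammonium bromide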
Summary of the method: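 ATP luminescence (CellTiter-Glo) was measured after 16 hr compound exposure at 37 C of 2500 lymphoblastoid LYMP1-002 cells per well. Concentration-response curves were fitted with the Hill equation to give AC50.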

[4] = MultiTox-Fluor Cytotoxicity Assay - LYMP1-002 - Live Cells (AID 955); details: LYMP1-002 lymphoblastoid live-cell protease fluorescence viability; at 46.1 µM (top of the series); further: on the % scale 0 is the no-effect control and ±100 the full control effect
Summary of the method: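 Human lymphoblastoid LYMP1-002 cells, 2500/well in complete medium, rested 5 hr at 37 C, then exposed to compounds for 16 hr at 37 C. Live-cell protease cleavage of GF-AFC read by fluorescence (Ex/Em 405/510) after 60 min at room temperature; AC50 from Hill fits.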

[5] = MultiTox-Fluor Cytotoxicity Assay - LYMP1-003 - Dead Cells (AID 961); details: LYMP1-003 lymphoblastoid cells, dead-cell protease fluorescence; at 92.2 µM (top of the series);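 further: 0% = DMSO and 100% = tetraoctylammonium bromide; nearly all actives have a fitted effect of over 70% in size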
Summary of the method: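 LYMP1-003 human lymphoblastoid cells (2500/well) exposed to compound 16 h at 37 C in complete medium; dead-cell protease read with bis-AAF-R110 fluorescence (Ex/Em 485/520) after 60 min at room temperature. Normalized to DMSO and 15 uM tetraoctylammonium bromide; AC50 from Hill fit.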

[6] = MultiTox-Fluor Cytotoxicity Assay - LYMP1-003 - Live Cells (AID 962); details: LYMP1-003 lymphoblastoid cells, MultiTox-Fluor live-cell protease fluorescence; at 92.2 µM (top of the series);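 further: 0% = DMSO only and full loss = 92 µM tetraoctylammonium bromide; cytotoxic hits lower the live-cell protease signal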
Summary of the method: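 LYMP1-003 human lymphoblastoid cells (2500/well) in complete medium were preincubated 5 hr at 37 C, then exposed to compounds for 16 hr at 37 C. Live-cell protease cleavage of GF-AFC read by fluorescence (Ex/Em 405/510); AC50 from Hill fits.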

[7] = Cell Viability - LYMP1-003 - Assay at 24 hr (AID 963); details: LYMP1-003 lymphoblastoid cell viability; at 92.2 µM (top of the series);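 further: plate controls were DMSO only for no effect and tetraoctylammonium bromide positive control for full effect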
Summary of the method: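 Human lymphoblastoid LYMP1-003 cells (2500/well) were rested 5 hr at 37 C, then exposed to compounds in complete medium for 24 hr at 37 C. Cellular ATP was quantified by CellTiter-Glo luminescence, and AC50 values came from Hill fits of concentration-response data.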

[8] = Cell Viability - LYMP1-003 - Assay at 40 hr (AID 964); details: LYMP1-003 lymphoblastoid viability; at 92.2 µM (top of the series); further: on the % scale 0 is the no-effect control and ±100 the full control effect; nearly all actives have a fitted effect of over 60% in size
Summary of the method: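 Human lymphoblastoid LYMP1-003 cells, 2500/well in complete medium, rested 5 hr at 37 C, then exposed to compounds for 40 hr at 37 C. Viability read as intracellular ATP by CellTiter-Glo luminescence; AC50 from Hill fits of concentration-response data.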

[9] = Cell Viability - LYMP2-003 (AID 965); details: LYMP2-003 lymphoblastoid cell viability; at 92.2 µM (top of the series);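 further: cells exposed to compounds for 24 h before reading; 0% = DMSO only and full effect = 92 µM tetraoctylammonium bromide; nearly all actives have a fitted effect of over 50% in size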
Summary of the method: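 CellTiter-Glo luminescence quantified ATP loss after 24 h compound treatment of LYMP2-003 lymphoblastoid cells at 37 C. Titration series were fitted with the standard Hill equation to give AC50.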

[10] = Cell Viability - LYMP2-004 (AID 966); details: LYMP2-004 lymphoblastoid cell viability, qHTS; at 92.2 µM (top of the series);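 further: plate controls were DMSO only for no effect and tetraoctylammonium bromide control for full effect; nearly all actives have a fitted effect of over 65% in size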
Summary of the method: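 Human lymphoblastoid cells (2500/well) in complete medium were treated with compounds for 24 hr at 37 C, then intracellular ATP was measured by CellTiter-Glo luminescence. AC50 values came from Hill-equation fits of concentration-response data.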

[11] = Cell Viability - LYMP2-005 (AID 967); details: LYMP2-005 lymphoblastoid cell viability; at 92.2 µM (top of the series);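 further: plate controls were DMSO only for no effect and 92 µM tetraoctylammonium bromide control for full effect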
Summary of the method: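 LYMP2-005 human lymphoblastoid cells (2500/well) were treated with compounds for 24 h at 37 C. Intracellular ATP was then measured by CellTiter-Glo luminescence after 30 min at room temperature. AC50 values came from Hill-equation fits of qHTS concentration-response data.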

[12] = Cell Viability - LYMP2-009 (AID 968); details: LYMP2-009 lymphoblastoid cell viability; at 92.2 µM (top of the series);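 further: 0% = DMSO alone and the full-kill end = tetraoctylammonium bromide at 92 µM; nearly all actives have a fitted effect of over 55% in size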
[13] = Cell Viability - LYMP2-011 (AID 969); details: LYMP2-011 lymphoblastoid cells viability; at 92.2 µM (top of the series);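 further: 0% = DMSO only and full inhibition = 92 µM tetraoctylammonium bromide; nearly all actives have a fitted effect of over 60% in size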
Summary of the method: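 Human lymphoblastoid cells (2500/well) were plated in complete medium, preincubated 5 hr at 37 C, then exposed to compounds for 24 hr at 37 C. Intracellular ATP was read by CellTiter-Glo luminescence, and AC50 came from Hill-equation concentration-response fits.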

[14] = Cell Viability - LYMP2-013 (AID 970); details: LYMP2-013 lymphoblastoid cells viability; at 92.2 µM (top of the series);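 further: 0% = DMSO only and full inhibition = tetraoctylammonium bromide control; nearly all actives have a fitted effect of over 55% in size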
Summary of the method: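 Human lymphoblastoid cells, 2500/well, were preincubated 5 hr at 37 C, then treated with compounds for 24 hr at 37 C in complete medium. Intracellular ATP was read by CellTiter-Glo luminescence; AC50 from Hill-equation fits of concentration-response data.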

[15] = Cell Viability - LYMP2-015 (AID 971); details: LYMP2-015 lymphoblastoid cell viability; at 92.2 µM (top of the series);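 further: 0% = DMSO only and full effect = 92 µM tetraoctylammonium bromide; nearly all actives have a fitted effect of over 55% in size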
Summary of the method: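 Human lymphoblastoid cells (2500/well) in complete medium were preincubated 5 hr at 37 C, then compound-treated 24 hr at 37 C. Intracellular ATP was read by CellTiter-Glo luminescence after 30 min at room temperature; AC50 came from Hill-equation concentration-response fits.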

[16] = Cell Viability - LYMP2-017 (AID 972); details: LYMP2-017 lymphoblastoid cell viability; at 92.2 µM (top of the series); further: on the % scale 0 is the no-effect control and ±100 the full control effect; nearly all actives have a fitted effect of over 55% in size
Summary of the method: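 Human lymphoblastoid cells (2500/well) were seeded in complete medium, held 5 hr at 37 C, then exposed to compounds for 24 hr at 37 C. Intracellular ATP was read by CellTiter-Glo luminescence after 30 min at room temperature, with AC50 values from Hill-equation fits.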

[17] = Cell Viability - LYMP2-019 (AID 973); details: LYMP2-019 lymphoblastoid cell line viability; at 92.2 µM (top of the series)
Summary of the method: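 Human lymphoblastoid cells were seeded at 2500 cells/well, preincubated 5 hr at 37 C, then exposed to compounds for 24 hr at 37 C in complete medium. Intracellular ATP was measured by CellTiter-Glo luminescence; AC50 from Hill fits.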

[18] = MultiTox-Fluor Cytotoxicity Assay - LYMP1-002 - Dead Cells (AID 960); details: LYMP1-002 lymphoblastoid cells, dead-cell protease fluorescence; at 46.1 µM (top of the series);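 further: 0% = DMSO and 100% = tetraoctylammonium bromide; nearly all actives have a fitted effect of over 60% in size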
Summary of the method: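 Human lymphoblastoid cells (LYMP1-002), 2500/well in complete medium, were exposed to compounds for 16 hr at 37 C. Dead-cell protease activity was read as bis-AAF-R110 fluorescence (Ex/Em 485/520), normalized to DMSO and 15 uM tetraoctylammonium bromide; AC50 from Hill fits.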

[19] = biological target: Muscarinic acetylcholine receptor M1 (Rattus norvegicus) (UniProt P08482); assay: qHTS Assay for Antagonists of Acetylcholine Muscarinic M1 Receptor: Measurement of IP-One Response (AID 944); details: CHO-M1 cells, IP-One HTRF, antagonist mode; at 46.1 µM (top of the series); further: nearly all actives have a fitted effect of over 75% in size
[20] = biological target: Pyruvate kinase PKM (Homo sapiens) (UniProt P14618); assay: qHTS Assay for Activators of Human Muscle Pyruvate Kinase (AID 954; active means well fitted curve in the direction sought with a large enough effect, not every such curve was filed as active;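 further: 0% = uninhibited enzyme and -100% = no enzyme or full thiadiazolimine inhibition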); details: purified human PKM1 enzyme activity; at 57.5 µM (top of the series)
Summary of the method: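 Purified human PKM2 (0.1 nM) with 0.5 mM PEP (Km) and 0.1 mM ADP in 50 mM imidazole pH 7.2, KCl, MgCl2, 1 h at room temperature; ATP formed read by coupled luciferase luminescence. Normalized to no-enzyme/110 uM thiadiazolimine inhibition; 0.3 nM enzyme column for activation.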

Cc1cccc([N+](=O)[O-])c1[N+](=O)[O-]
inactive: cytotoxicity (dead cells) [1] 0.502% | activity change, negative = cytotoxicity [2] -19.6% | activity change, negative = cytotoxicity [3] -9.52% | viability change, negative = cytotoxic [4] 1.51% | cytotoxicity (dead cells) [5] 0.752% | activity change, negative = fewer live cells [6] -3.13% | viability change, negative = cytotoxic [7] -6.77% | activity change, negative = cytotoxic [8] -16.9% | activity change, negative = cytotoxicity [9] 6.98% | activity change, negative = cytotoxicity [10] -12.8% | activity change, negative = viability loss [11] 22.5% | activity change, negative = viability loss [12] -16.9% | viability change, negative = cytotoxic [13] -8.76% | activity change, negative = cytotoxic [14] -4.22% | activity change, negative = lower viability [15] -21.6% | activity change, negative = cytotoxicity [16] -14.6% | activity change, negative = cytotoxicity [17] -13.2%

[NH4+].[O-][Cl+3]([O-])([O-])[O-]
inactive: cytotoxicity (dead cells) [1] -2.73% | activity change, negative = cytotoxicity [2] -0.755% | activity change, negative = cytotoxicity [3] -3.79% | viability change, negative = cytotoxic [4] 6.18% | cytotoxicity (dead cells) [18] 21.8% | cytotoxicity (dead cells) [5] -19.7% | activity change, negative = fewer live cells [6] -4.42% | viability change, negative = cytotoxic [7] 2.67% | activity change, negative = cytotoxic [8] -4.11% | activity change, negative = viability loss [11] 8.35% | activity change, negative = viability loss [12] -3.8% | activity change, negative = cytotoxic [14] -1.17%

N#[O+].[C-]#N.[C-]#N.[C-]#N.[C-]#N.[C-]#N.[Fe+2].[Na+].[Na+]
inactive: activity change, negative = inhibition [19] -27.3% | activity change, negative = inhibition [20] -12.7%

CCC(C)(OO)OOC(C)(CC)OO (centres undefined)
inactive: cytotoxicity (dead cells) [1] -10.3% | activity change, negative = cytotoxicity [2] 2.71% | activity change, negative = cytotoxicity [3] -1.42% | viability change, negative = cytotoxic [4] 7.86% | cytotoxicity (dead cells) [18] -3.45% | cytotoxicity (dead cells) [5] -1.4% | activity change, negative = fewer live cells [6] -4.76% | viability change, negative = cytotoxic [7] -3.57% | activity change, negative = cytotoxic [8] -11.3% | activity change, negative = cytotoxicity [9] -14% | activity change, negative = viability loss [11] -11.8% | activity change, negative = viability loss [12] -15.8% | viability change, negative = cytotoxic [13] -0.657% | activity change, negative = cytotoxic [14] -14.7% | activity change, negative = cytotoxicity [17] -16%

CCOP(=O)(CC)OCC
inactive: cytotoxicity (dead cells) [1] 2.94% | activity change, negative = cytotoxicity [2] -10.5% | activity change, negative = cytotoxicity [3] -1.11% | viability change, negative = cytotoxic [4] -3.43% | cytotoxicity (dead cells) [18] 18.9% | cytotoxicity (dead cells) [5] -2.1% | activity change, negative = fewer live cells [6] -5.03% | viability change, negative = cytotoxic [7] -0.703% | activity change, negative = cytotoxic [8] 3.24% | activity change, negative = cytotoxicity [9] 10.9% | activity change, negative = cytotoxicity [10] 14.6% | activity change, negative = viability loss [11] 4.85% | activity change, negative = viability loss [12] 4.97% | viability change, negative = cytotoxic [13] 1.49% | activity change, negative = cytotoxic [14] -3.25% | activity change, negative = lower viability [15] -5.28% | activity change, negative = cytotoxicity [16] -7.31% | activity change, negative = cytotoxicity [17] -7.39%
